# Yeast mating assay 1: variants of the scFv Ab-14

The target is the same throughout: PDVDLGDISGINAS, from the HR2 region of SARS-CoV-2 spike.

The variants keep the light chain, the linker and the frameworks of Ab-14 (scFv order VH, three GGGGS repeats, VL).
VH: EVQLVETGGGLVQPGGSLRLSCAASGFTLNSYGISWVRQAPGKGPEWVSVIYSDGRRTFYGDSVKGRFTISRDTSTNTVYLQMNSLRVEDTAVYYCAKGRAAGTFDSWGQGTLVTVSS
VL: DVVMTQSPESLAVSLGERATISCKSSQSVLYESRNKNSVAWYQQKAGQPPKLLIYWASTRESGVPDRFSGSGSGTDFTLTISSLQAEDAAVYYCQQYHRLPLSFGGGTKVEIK

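In library AAYL49, one, two or three CDR residues were substituted; doubles and triples were drawn at random. The scFvs were displayed on barcoded MATa yeast, the peptide on MATalpha yeast. Pairs that bind mate more often; barcode pairs of the diploids are counted by sequencing. The ratio of observed to expected reads was calibrated, replicate by replicate, on BCL2-family standards whose Kd was known from biolayer interferometry. There are three technical replicates.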

Positions count from residue 1 of the parent VH; G26K puts K in place of G.
Kd is apparent (estimated from mating counts) and averaged on the log scale over replicates with a signal. Smaller is tighter.
"nd" marks a missing value. The strain was present, yet no cells mated with the target were sequenced in any replicate, which points to weak or no binding.
Order: sorted from the lowest average up, undetected variants last.
In this assay the parent's reference entry averaged 4.4 nM; its copy inside this library read 13 µM (one replicate of three).

changes | Kd (apparent) | seen in
G26K/F27N/G61D | 3.8 nM | 3/3
R100I/A101N/T104D | 11 nM | 3/3
N30E/S35H/D62P | 19 nM | 3/3
Y52S/G61I/R100K | 77 nM | 3/3
K65M/A101M/S107H | 99 nM | 3/3
T28A/F59D/R100N | 190 nM | 3/3
D62A/A101N/S107G | 830 nM | 1/3
L29D/G33W/V64A | 1.6 µM | 3/3
R57E/F59P/A102F | 1.8 µM | 1/3
G26S/Y60A/G99Y | 2.2 µM | 1/3
T28C/S53E/F105Y | 2.4 µM | 1/3
Y52N/R56W | 2.5 µM | 1/3
L29T/Y52E/S53Q | 3.2 µM | 1/3
L29D/S35G/G61C | 4.8 µM | 1/3
Y52Q/D54A/G99N | 4.9 µM | 1/3
T28V/G61N/D106T | 5.0 µM | 1/3
F59D/G61S/S63P | 5.5 µM | 1/3
S31W/I51P/S53F | 5.8 µM | 2/3
G26A/R57T/F105D | 6.4 µM | 2/3
G33V/R57H/F59P | 8.7 µM | 1/3
Y32P/I34P/A102V | 9.8 µM | 1/3
Y52M/T58K/D62I | 10 µM | 1/3
L29M/D54Q/R57D | 12 µM | 1/3
S31T/S53H/T104P | 15 µM | 2/3
S53G/Y60C/G61A | 16 µM | 2/3
S35V/V64R/S107L | 21 µM | 1/3
L29M/G33E/T58H | 21 µM | 3/3
T28A/Y32N/D62H | 23 µM | 1/3
V50K/F59W/K65Y | 32 µM | 1/3
F27W/Y60N/G99S | 36 µM | 2/3
D54V/F105K/D106N | 37 µM | 2/3
F59P/F105H | 46 µM | 3/3
D54N/G61W/G99R | 60 µM | 1/3
I34W/R57Q/V64F | 89 µM | 2/3
L29E/S35I/T104D | 100 µM | 2/3
Y32S/Y60F/F105A | 170 µM | 1/3
L29H/T58W | 180 µM | 2/3
N30R/I51C | 280 µM | 1/3
Y32V/I34P/D62L | 420 µM | 2/3

Second part, the sequence after the result:

Kd (apparent) | seen in | changes
nd | 0/3 | S31H/D62R/S107D
nd | 0/3 | S35D/R56A
nd | 0/3 | I51E/F59G/G99D
nd | 0/3 | G26P/S31V/V50A
nd | 0/3 | G55P/G99L/A101D
nd | 0/3 | R57H/G99A/A101N
nd | 0/3 | S53W/R100C/S107R
nd | 0/3 | Y60P/R100S
nd | 0/3 | R56M/V64K
nd | 0/3 | N30S/R57Q/T104A
nd | 0/3 | L29H/I34S/A101F
nd | 0/3 | L29V/G55I/V64C
nd | 0/3 | R57A/G99Q/G103D
nd | 0/3 | F27D/G103I/T104D
nd | 0/3 | L29M/G33E/R56M
nd | 0/3 | Y52I/S53T/T58N
nd | 0/3 | F59T/S107P
nd | 0/3 | S35F/V50Q/T104Y
nd | 0/3 | R56G/D62F/G99T
nd | 0/3 | N30T/I34Q/V64H
nd | 0/3 | S35F/G55Q/D106R
nd | 0/3 | L29M/Y60W/F105R
nd | 0/3 | G55Y/R56L/V64M
nd | 0/3 | T28Y/G99S
nd | 0/3 | G26C/V50A/S63H
nd | 0/3 | L29N/G55L
nd | 0/3 | Y60A/K65I/R100C
nd | 0/3 | F27K/Y32A/Y60C
nd | 0/3 | S53C/R56D/D106L
nd | 0/3 | I34A/I51R/G61S
nd | 0/3 | L29F/I51F/R100N
nd | 0/3 | V50L/R57A/V64H
nd | 0/3 | I51F/G99C/A102W
nd | 0/3 | R56K/F59L/Y60A
nd | 0/3 | Y52W/S53I/Y60Q
nd | 0/3 | G55M/G99A/D106L
nd | 0/3 | Y32S/G99H/R100Q
nd | 0/3 | I34A/R57A/A101H
nd | 0/3 | S35K/G55Q/K65C
nd | 0/3 | G26T/I34P/D62L

Nonspecific signal, from three strains lacking the peptide, appeared in 15% of pairings of library AAYL49, centred on 11 µM (5% of these signals below 680 nM); values are not corrected for it.

Reference: Engelhart et al. 2022, doi:10.1038/s41597-022-01779-4. File: FLAb, binding data.